{"sequences": {"note": "The chains behind the UniProt entries cited, without tags or fusion partners.", "UniProt Q9UIF8, whole entry": "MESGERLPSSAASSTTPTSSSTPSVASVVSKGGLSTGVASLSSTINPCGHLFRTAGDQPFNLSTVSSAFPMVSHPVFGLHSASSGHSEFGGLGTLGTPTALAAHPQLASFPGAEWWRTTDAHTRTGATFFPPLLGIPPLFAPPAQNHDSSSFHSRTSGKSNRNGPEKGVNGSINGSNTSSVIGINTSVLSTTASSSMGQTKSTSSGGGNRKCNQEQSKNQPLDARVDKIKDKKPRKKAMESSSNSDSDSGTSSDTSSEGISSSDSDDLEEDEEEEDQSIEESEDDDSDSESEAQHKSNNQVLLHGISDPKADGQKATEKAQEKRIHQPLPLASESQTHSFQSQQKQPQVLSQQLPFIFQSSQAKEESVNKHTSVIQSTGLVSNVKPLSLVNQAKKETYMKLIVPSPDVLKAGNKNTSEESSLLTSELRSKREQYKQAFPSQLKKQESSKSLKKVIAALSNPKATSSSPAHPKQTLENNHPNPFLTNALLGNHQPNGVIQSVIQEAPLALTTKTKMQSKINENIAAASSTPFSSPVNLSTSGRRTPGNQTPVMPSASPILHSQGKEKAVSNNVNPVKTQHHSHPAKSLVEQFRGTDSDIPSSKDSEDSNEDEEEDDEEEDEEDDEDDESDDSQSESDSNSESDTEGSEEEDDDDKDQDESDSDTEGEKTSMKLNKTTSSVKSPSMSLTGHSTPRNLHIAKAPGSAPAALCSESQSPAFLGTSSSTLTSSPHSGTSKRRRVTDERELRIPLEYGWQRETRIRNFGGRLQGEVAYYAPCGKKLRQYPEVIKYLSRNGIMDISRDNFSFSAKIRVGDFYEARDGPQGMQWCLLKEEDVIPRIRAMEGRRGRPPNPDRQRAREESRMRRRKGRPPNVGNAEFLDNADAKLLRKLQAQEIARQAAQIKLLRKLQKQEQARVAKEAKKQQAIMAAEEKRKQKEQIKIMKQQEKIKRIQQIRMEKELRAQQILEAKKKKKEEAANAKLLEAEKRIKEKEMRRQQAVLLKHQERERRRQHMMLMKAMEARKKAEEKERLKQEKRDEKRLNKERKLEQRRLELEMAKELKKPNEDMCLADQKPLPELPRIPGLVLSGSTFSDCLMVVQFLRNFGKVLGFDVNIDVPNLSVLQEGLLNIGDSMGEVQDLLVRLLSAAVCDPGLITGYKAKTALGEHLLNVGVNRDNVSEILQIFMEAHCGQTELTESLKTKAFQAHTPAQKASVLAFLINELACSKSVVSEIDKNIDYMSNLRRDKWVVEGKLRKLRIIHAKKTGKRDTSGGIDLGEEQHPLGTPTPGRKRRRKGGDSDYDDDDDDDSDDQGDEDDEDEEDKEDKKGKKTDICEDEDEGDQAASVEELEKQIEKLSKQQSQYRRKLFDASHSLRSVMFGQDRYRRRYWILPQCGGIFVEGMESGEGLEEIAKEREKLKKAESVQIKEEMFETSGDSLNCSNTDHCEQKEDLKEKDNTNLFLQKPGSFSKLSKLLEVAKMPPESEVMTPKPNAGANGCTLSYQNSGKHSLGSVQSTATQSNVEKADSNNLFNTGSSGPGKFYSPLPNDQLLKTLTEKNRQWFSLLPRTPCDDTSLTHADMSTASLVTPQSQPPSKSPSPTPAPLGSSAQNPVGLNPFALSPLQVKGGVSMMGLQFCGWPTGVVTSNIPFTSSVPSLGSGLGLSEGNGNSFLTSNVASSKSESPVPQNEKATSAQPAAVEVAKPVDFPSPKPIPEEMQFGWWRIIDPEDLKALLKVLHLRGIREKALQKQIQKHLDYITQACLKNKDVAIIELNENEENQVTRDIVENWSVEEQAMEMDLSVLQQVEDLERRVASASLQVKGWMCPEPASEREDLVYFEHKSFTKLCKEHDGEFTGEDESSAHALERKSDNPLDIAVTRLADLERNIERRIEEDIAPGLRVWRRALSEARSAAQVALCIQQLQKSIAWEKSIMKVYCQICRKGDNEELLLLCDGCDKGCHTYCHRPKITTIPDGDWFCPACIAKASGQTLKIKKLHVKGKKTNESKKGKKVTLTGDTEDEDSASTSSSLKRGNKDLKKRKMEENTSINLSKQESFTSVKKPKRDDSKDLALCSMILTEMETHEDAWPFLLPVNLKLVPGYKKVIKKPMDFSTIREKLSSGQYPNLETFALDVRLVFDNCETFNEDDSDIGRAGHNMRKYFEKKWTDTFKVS"}, "source": "PubChem BioAssay AID504333", "about": "(National Center for Advancing Translational Sciences (NCATS), 2011)", "note": "The list shows a part of the results, in another mix than the full data. Inconclusive results are not listed. Activity calls are given as the source filed them. Calls follow the shape of the dose curve; as a rule, active = well fitted inhibition curve with a large enough effect; inconclusive = small, poorly fitted or top-dose-only effect; inactive = no such curve, though single readings can be large or run the other way. % is scaled to controls: 0 for no effect and ±100 for the full control effect.", "data": [{"molecular_target": "Bromodomain adjacent to zinc finger domain protein 2B (Homo sapiens) (UniProt Q9UIF8)", "assay": "qHTS Assay for Inhibitors of BAZ2B; also: nearly all actives have a fitted effect of over 60% in size", "conditions": "AlphaScreen BAZ2B-H3K14Ac peptide displacement; series mostly up to 114 µM; activity change, negative = inhibition: at the top concentration", "values": [{"smiles": "O=C(OCCCN1CCCC1)C(O)(c1ccccc1)C1CCCCC1", "note": "(configuration not stated)", "activity change, negative = inhibition": "inactive: 1.19%"}, {"smiles": "COc1ccccc1OP(C)(=O)Nc1c(C)n(C)n(-c2ccccc2)c1=O", "note": "(configuration not stated)", "activity change, negative = inhibition": "inactive: 1.05%"}, {"smiles": "CCc1ccc(OP(C)(=O)Nc2cccnc2)cc1", "note": "(configuration not stated)", "activity change, negative = inhibition": "inactive: -0.844%"}, {"smiles": "CP(=O)(Oc1ccccc1)N1CCOC1=O", "note": "(configuration not stated)", "activity change, negative = inhibition": "inactive: 5.07%"}, {"smiles": "COc1ccc(OP(C)(=O)Nc2ccc(Br)cc2)cc1", "note": "(configuration not stated)", "activity change, negative = inhibition": "inactive: 7.95%"}, {"smiles": "CCN(CC)CC(O)COC(=O)C(O)(c1ccccc1)C1CCCCC1", "note": "(configuration not stated)", "activity change, negative = inhibition": "inactive: -2.95%"}, {"smiles": "CN(C)C(=O)c1c([N+](=O)[O-])cc([N+](=O)[O-])cc1[N+](=O)[O-]", "activity change, negative = inhibition": "inactive: -14.1%"}, {"smiles": "COc1ccccc1OP(C)(=O)Nc1ccccc1Br", "note": "(configuration not stated)", "activity change, negative = inhibition": "inactive: 10.5%"}, {"smiles": "CP(=O)(Nc1ccc(Cl)cc1)Oc1ccc(F)cc1", "note": "(configuration not stated)", "activity change, negative = inhibition": "inactive: 9.65%"}, {"smiles": "CCOC(=O)c1ccc(NP(C)(=O)Oc2ccc(Cl)cc2)cc1", "note": "(configuration not stated)", "activity change, negative = inhibition": "inactive: 0.381%"}, {"smiles": "CP(=O)(OC12CC3CC(CC(C3)C1)C2)OC12CC3CC(CC(C3)C1)C2", "activity change, negative = inhibition": "inactive: 2.12%"}, {"smiles": "COc1ccccc1OP(C)(=O)Nc1ccc(C)c(C)c1", "note": "(configuration not stated)", "activity change, negative = inhibition": "inactive: 6.91%"}, {"smiles": "COc1ccc(OP(C)(=O)Nc2ccccc2Br)cc1", "note": "(configuration not stated)", "activity change, negative = inhibition": "inactive: 10.3%"}, {"smiles": "Cc1cc(C)cc(OP(C)(=O)Nc2cccc(C(F)(F)F)c2)c1", "note": "(configuration not stated)", "activity change, negative = inhibition": "inactive: 3.84%"}, {"smiles": "CP(=O)(OCCOc1ccccc1)OCCOc1ccccc1", "activity change, negative = inhibition": "inactive: 9.4%"}, {"smiles": "CP(=O)(Nc1ccc(Cl)cc1Cl)Oc1ccccc1", "note": "(configuration not stated)", "activity change, negative = inhibition": "inactive: 3.43%"}, {"smiles": "Cc1nc2ccc3ccccc3c2o1.O=[N+]([O-])c1cc([N+](=O)[O-])c(O)c([N+](=O)[O-])c1", "activity change, negative = inhibition": "inactive: 1.22%"}, {"smiles": "COc1ccc(OP(C)(=O)Nc2ccccn2)cc1", "note": "(configuration not stated)", "activity change, negative = inhibition": "inactive: 2.38%"}, {"smiles": "CN(C)CCOC(=O)C(O)(c1ccccc1)C1CCCC1", "note": "(configuration not stated)", "activity change, negative = inhibition": "inactive: 5.5%"}, {"smiles": "COc1ccccc1OP(C)(=O)Nc1ccc(Br)cc1", "note": "(configuration not stated)", "activity change, negative = inhibition": "inactive: 0.5%"}, {"smiles": "COc1ccccc1OP(C)(=O)Nc1ccc(C)cc1C", "note": "(configuration not stated)", "activity change, negative = inhibition": "inactive: 1.56%"}, {"smiles": "CP(=O)(Nc1ccccn1)Oc1ccccc1", "note": "(configuration not stated)", "activity change, negative = inhibition": "inactive: 8.17%"}, {"smiles": "CCc1ccc(OP(C)(=O)O)cc1", "activity change, negative = inhibition": "inactive: -5.72%"}, {"smiles": "Cc1c(NP(C)(=O)Oc2ccc(C(C)C)cc2)c(=O)n(-c2ccccc2)n1C", "note": "(configuration not stated)", "activity change, negative = inhibition": "inactive: 8.01%"}, {"smiles": "CP(=O)(Nc1ccccc1F)Oc1ccccc1", "note": "(configuration not stated)", "activity change, negative = inhibition": "inactive: 12.4%"}, {"smiles": "CC(C)c1ccc(OP(C)(=O)Nc2ccc(SC(F)(F)F)cc2)cc1", "note": "(configuration not stated)", "activity change, negative = inhibition": "inactive: -3.1%"}, {"smiles": "O=C(OCCN1CCN(CCOCc2ccccc2)CC1)C(O)(c1ccccc1)c1ccccc1", "activity change, negative = inhibition": "inactive: -34.4%"}, {"smiles": "CCOC(=O)c1ccc(NP(C)(=O)Oc2ccc(F)cc2)cc1", "note": "(configuration not stated)", "activity change, negative = inhibition": "inactive: 1.23%"}, {"smiles": "COc1ccc(OP(C)(=O)Nc2ccc(SC(F)(F)F)cc2)cc1", "note": "(configuration not stated)", "activity change, negative = inhibition": "inactive: -0.627%"}, {"smiles": "CP(=O)(Nc1ccccc1)Oc1ccc(F)cc1", "note": "(configuration not stated)", "activity change, negative = inhibition": "inactive: 10.1%"}, {"smiles": "CCCCCOc1ccc(NP(C)(=O)Oc2ccc(Cl)cc2Cl)cc1", "note": "(configuration not stated)", "activity change, negative = inhibition": "inactive: -13.7%"}, {"smiles": "CCN(CC)CCCOC(=O)C(O)(c1ccccc1)C1CCCCC1", "note": "(configuration not stated)", "activity change, negative = inhibition": "inactive: 0.802%"}, {"smiles": "CN(C)CCOC(=O)C(O)(c1ccccc1)C1CCCCC1", "note": "(configuration not stated)", "activity change, negative = inhibition": "inactive: -2.26%"}, {"smiles": "COc1ccc(NP(C)(=O)Oc2ccccc2OC)cc1", "note": "(configuration not stated)", "activity change, negative = inhibition": "inactive: 13%"}, {"smiles": "COc1ccc(OP(C)(=O)Nc2cccc(Br)c2)cc1", "note": "(configuration not stated)", "activity change, negative = inhibition": "inactive: -1.64%"}, {"smiles": "O=[N+]([O-])c1ccc(OP2(=O)COCCO2)cc1", "note": "(configuration not stated)", "activity change, negative = inhibition": "inactive: -0.347%"}, {"smiles": "Cc1cc(-c2cccc3ccccc23)c(C)cn1.O=[N+]([O-])c1cc([N+](=O)[O-])c(O)c([N+](=O)[O-])c1", "activity change, negative = inhibition": "inactive: -6.77%"}]}]}
